In patent EP4818168A1, “FUSED RING COMPOUND, PHARMACEUTICAL COMPOSITION THEREOF AND USE THEREOF” (priority 2023, dated 2025):

Biological target: T1, AURKA (Homo sapiens, UniProt O14965)
T1 construct: endogenous in cells; host or cells: Jurkat cells
T1 sequence (O14965 1-403): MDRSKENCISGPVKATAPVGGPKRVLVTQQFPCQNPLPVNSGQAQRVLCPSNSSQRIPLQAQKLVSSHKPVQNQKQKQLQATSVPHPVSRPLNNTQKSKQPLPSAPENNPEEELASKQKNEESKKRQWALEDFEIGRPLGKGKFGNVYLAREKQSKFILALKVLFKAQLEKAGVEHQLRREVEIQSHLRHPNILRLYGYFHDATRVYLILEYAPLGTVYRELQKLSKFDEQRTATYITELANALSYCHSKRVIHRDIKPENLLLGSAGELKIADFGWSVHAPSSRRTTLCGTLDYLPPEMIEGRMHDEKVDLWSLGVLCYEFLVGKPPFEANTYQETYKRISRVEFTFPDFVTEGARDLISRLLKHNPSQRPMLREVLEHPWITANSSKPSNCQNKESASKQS
Assay type: cell-based
Text: WB is a classical biochemical experimental method used to detect the abundance of a target protein in a sample of cells or biological tissue. It relies on specific antigen-antibody binding to detect protein signals from the sample processed by gel electrophoresis: the protein specifically binds to a primary antibody at an epitope; the primary antibody is then conjugated with a secondary antibody to amplify the signal cascade; the signal is read out by chemiluminescent or fluorescent detection. The intracellular protein content is ultimately characterized by the intensity of the optical signals. […] The DC50 value can be calculated by curve fitting of the protein WB exposure signals.
The experimental procedure is as follows: • 1. Seed Jurkat cells into a 12-well plate at 1×10^6 cells/500 µL/well. • 2. Mix the culture medium with the compound to a concentration that is twice the desired final concentration. […] Transfer the cell suspension to a centrifuge tube. Rinse the 12-well plate with PBS and then transfer the PBS from the plate to the same centrifuge tube. Centrifuge at 3000 rpm for 5 min at room temperature. Aspirate the supernatant using a vacuum pump. […] Lyse on ice for 20 min. • 4. Centrifuge the lysed sample at 13000 rpm for 20 min at 4°C. Mix the supernatant with 5× protein loading buffer. Boil at 100°C for 5 min and then cool. Store the denatured protein sample at -20°C. • 5. […] Run electrophoresis at 80 V for 20 min, and then at 120 V constant voltage for 60 min. • 6. Transfer the protein onto a nitrocellulose membrane in an ice bath at 250 mA constant current for 90 min. • 7. […] Incubate with a primary antibody overnight at 4°C. • 9. […] Incubate with a secondary antibody for 1-2 h at room temperature. • 10. […] Expose and image the membrane using a LICOR Odyssey DLx imager.

[1] = 100 nM compound, Jurkat cells, 24 h, Table 1
[2] = 1 µM compound, Jurkat cells, 24 h, Table 1

Compound | Percentage of AURKA Degradation Induced by 100 nM Compound in Jurkat Cells [1] | Percentage of AURKA Degradation Induced by 1 µM Compound in Jurkat Cells [2] | Percentage of AURKA Degradation Induced by 100 nM Compound in Jurkat Cells | Percentage of AURKA Degradation Induced by 1 µM Compound in Jurkat Cells
O=C1CCN(c2cccc(C#CC34CC(NC(=O)c5ccc(Nc6ncc7c(n6)-c6ccc(Cl)cc6C(c6c(F)cccc6F)=NC7)cc5)(C3)C4)c2)C(=O)N1 [Compound A76] | ++ (30% < Degradation ≤ 70%) | ++ (30% < Degradation ≤ 70%) | – | –
O=C1CCN(c2cccc(N3CCN(CC#Cc4cccc(Nc5ncc6c(n5)-c5ccc(Cl)cc5C(c5c(F)cccc5F)=NC6)c4)CC3)c2)C(=O)N1 [Compound A98] | – | – | ++ (key: +: Degradation ≤ 30%; ++: 30% < Degradation ≤ 70%; +++: Degradation > 70%) | +++ (key: +: Degradation ≤ 30%; ++: 30% < Degradation ≤ 70%; +++: Degradation > 70%)
COc1cc(Nc2ncc3c(n2)-c2ccc(Cl)cc2C(c2c(F)cccc2OC)=NC3)ccc1C(=O)NC1CC(C#Cc2cccc(N3CCC(=O)NC3=O)c2)C1 (centres unmarked) [Compound A50] | +++ (Degradation > 70%) | +++ (Degradation > 70%) | – | –
O=C1CCN(c2cccc(C#CCN3CCn4c(cnc4-c4ccc(Nc5ncc6c(n5)-c5ccc(Cl)cc5C(c5c(F)cccc5F)=NC6)cc4)C3)c2)C(=O)N1 [Compound A145] | – | – | ++ (key: +: Degradation ≤ 30%; ++: 30% < Degradation ≤ 70%; +++: Degradation > 70%) | ++ (key: +: Degradation ≤ 30%; ++: 30% < Degradation ≤ 70%; +++: Degradation > 70%)

Like-named read-outs stand apart in the source and are kept apart here.
